Target: T1, eukaryotic translation initiation factor 2 alpha kinase 2 (EIF2AK2, PKR) (Homo sapiens, UniProt P19525, DEL338-350/H412N/C551A)
T1 sequence (P19525 with tags, fused parts or gaps DEL338-350/H412N/C551A): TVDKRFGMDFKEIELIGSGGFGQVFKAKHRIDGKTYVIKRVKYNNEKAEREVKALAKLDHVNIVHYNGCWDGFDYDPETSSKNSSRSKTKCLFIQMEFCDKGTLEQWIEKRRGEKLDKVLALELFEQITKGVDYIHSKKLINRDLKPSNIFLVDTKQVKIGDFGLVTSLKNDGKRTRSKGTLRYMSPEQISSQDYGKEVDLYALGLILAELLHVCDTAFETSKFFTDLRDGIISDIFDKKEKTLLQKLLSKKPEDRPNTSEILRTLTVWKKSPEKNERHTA
Assay: SPR
Format: binding

With `COc1ccc2cc3[n+](cc2c1OC)CCc1cc2c(cc1-3)OCO2` [BBR, berberine] the Kd was 7.12 µM.

Reference: paper PMC10213791 (Acta Pharmaceutica Sinica. B, 2022)
